# Screening data deposited in PubChem BioAssay by National Center for Advancing Translational Sciences (NCATS).
# Rango complex inh – Rango-importin beta binding inhibition; Rango CFP/YFP FRET sensor + importin beta, 45 min; Potency, µM (doses to about 92.2 µM); hit rate 0.031% among 340,000; further: nearly all actives have a fitted effect of over 15% in size
#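 FRET biosensor Rango (snurportin 1 IBB between N-terminal EYFP and C-terminal Cerulean), 50 nM in PBS/1 mM DTT/0.02% Tween-20/0.1% BSA, preincubated 5 min RT with compound; 0.125 microM importin beta added, 45 min RT, CFP/YFP FRET ratio read.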
# D3 antag – antagonists of human D3 dopamine receptor | P35462 | D3R cells, DiscoveRx beta-arrestin luminescence, antagonist mode; hits give low values | max response, negative = inhibition, % | hit rate 2.5% among 360,000 | AID 652054; in the data active means max response below about -50%; inconclusive means no clear call, values can overlap the other calls
#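 Cells expressing the human receptor were seeded at 1500 cells/well, incubated overnight at 37 degrees C in 5% CO2, then exposed to library compounds with dopamine controls for 90 minutes at 37 degrees C before luminescent detection.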
# PTAP TSG101 blk – blocks PTAP/TSG101 interaction to inhibit HIV-1 budding; 340,000 tested, under 10 active; AID 493005; Potency, µM (doses to about 115 µM), usual class: inhibitors; Fluorescence polarization, FITC-PTAP peptide / Tsg101 binding; Q99816; active means well fitted inhibition curve with a large enough effect in the main read-out, with a control signal flat, not every such curve was filed as active; inconclusive means small, poorly fitted or top-dose-only effect, or effect the other way, or a change in a side signal; inactive means no such curve, though single readings can be large or run the other way
#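 Fluorescence anisotropy tracks displacement of a FITC-tagged PTAP peptide (50 nM) from the Tsg101 binding domain (10 uM), following a 20 min room-temperature incubation at pH 7.5.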
# Rango dissoc inh – inhibition of RanGTP-driven Rango-importin beta dissociation. O95149+P62826. Biochemical FRET Rango-importin beta, RanGTP-induced dissociation. Potency, µM (series often up to 46.1 µM). hit rate 0.071% among 340,000. AID 540253; further: nearly all actives have a fitted effect of over 45% in size
#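 Rango FRET biosensor (snurportin-1 IBB flanked by N-terminal EYFP and C-terminal CFP10) at 0.1 uM, with 0.25 uM importin beta in PBS, 1mM DTT, 0.02% Tween-20, 0.1% BSA. 0.6 uM Ran, 2mM GTP and 0.2 uM RCC1 were then added for 45 min at room temperature. Inhibition read as loss of FRET rise.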
# MmCpn inh – inhibitors of Methanococcus maripaludis chaperonin TRiC (MmCpn). purified Mm-Cpn ATPase, ADP Transcreener TR-FRET. Potency, µM (top dose mostly 76.9 µM), hits mostly inhibitors. hit rate 0.031% among 330,000. AID 504842; active means well fitted inhibition curve with a large enough effect; inconclusive means small, poorly fitted or top-dose-only effect; further: nearly all actives have a fitted effect of over 80% in size
#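 ATPase read-out: TR-FRET ADP immunoassay (anti-ADP Eu cryptate vs ADP-d2), ex 320 nm, em 590/665 nm; signal drops as ADP forms. Enzyme 25 nM, ATP 10 uM, 30 min at 37°C after 10 min compound preincubation.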
# D3 ag – activates the human D3 dopamine receptor; P35462; D3R DiscoveRx beta-arrestin cells, luminescence, 90 min; max activation, %; hit rate 0.58% among 410,000; AID 652048; in the data active means max activation above about 30%
#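 Agonist-mode cell screen: cells plated at 1500/well and incubated overnight at 37 °C, then exposed to library compounds for 90 min at 37 °C. Detection reagent was added for 30–60 min at room temperature, and luminescence was read.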
# A number is an active result; 0 = inactive; ? = inconclusive; - = not tested or not shown; ! = a repeat was not active; [ ] = remark or other dose. Hits are enriched below; roughly 2.9% of the tested compounds scored in any of these assays. Unless noted, the call rests on the fitted dose curve.
SMILES,Rango complex inh,D3 antag,PTAP TSG101 blk,Rango dissoc inh,MmCpn inh,D3 ag
N#Cc1c2c(c(NCc3cccnc3)n3c1nc1ccccc13)CCC2,?,-53,0,?,0,0
COc1cc(OC)cc(C(=O)NC2CC3CCC(C2)N3C)c1 (stereo unspecified),0,0,0,0,0,0
O=C(NC1CC2CCC(C1)N2Cc1ccccc1)c1cccc(F)c1 (stereo unspecified),0,-117,0,0,0,0
COc1ccc(CN2C3CCC2CC(NC(=O)c2cccc(F)c2)C3)cc1 (stereo unspecified),0,-86,0,0,0,0
COc1cccc(C(=O)NC2CC3CCC(C2)N3Cc2ccccc2)c1 (stereo unspecified),0,-108,0,0,0,0
O=C(NC1CC2CCC(C1)N2Cc1ccco1)c1ccccc1 (stereo unspecified),0,-69,0,0,0,0
COc1cccc(C(=O)NC2CC3CCCC(C2)N3CC(=O)Nc2ccccc2C(F)(F)F)c1 (stereo unspecified),0,0,0,0,0,0
C/C(=N\O)c1ccc(OCC(=O)N2CCCCC2)cc1,-,-,-,-,-,0
C=CCc1ccccc1OCC(O)CNC (stereo unspecified),0,-64,0,0,0,0
C=CCc1ccc(OCC(O)CN2CCN(c3ccccc3OC)CC2)c(OC)c1 (stereo unspecified),0,-103,0,0,0,0
C=CCc1ccc(OCC(O)CN2CCN(Cc3ccc(Cl)cc3)CC2)c(OC)c1 (stereo unspecified),0,-73,0,0,0,0
COc1ccc(CC(C)N2CCN(c3ccccc3OC)CC2)cc1OC (stereo unspecified),0,-93,0,0,?,0
C=CCc1ccccc1OCC(O)CN(C(C)C)C(C)C (stereo unspecified),0,0,0,0,0,0
C=CCc1ccc(OCC(O)CN2CCC(Cc3ccccc3)CC2)c(OC)c1 (stereo unspecified),0,0,0,0,0,0
C=CCc1ccccc1OCC(O)CN1CCN(c2ccc(OC)cc2)CC1 (stereo unspecified),0,-82,0,0,0,0
CCN(C(=O)c1cn(-c2ccc(OC)cc2)c(=O)c2ccccc12)c1cccc(Cl)c1,-,-,-,-,-,0
OCC1(Cc2cccc(Cl)c2)CCCN(Cc2cnn(-c3ccccc3)c2)C1 (stereo unspecified),0,-62,0,0,0,0
Cn1cc(CN2CCCC(CO)(Cc3cccc(Cl)c3)C2)cn1 (stereo unspecified),0,0,0,0,0[15.4 µM],0
OCC1(Cc2ccc(F)cc2F)CCCN(Cc2ccc(Cl)cc2)C1 (stereo unspecified),0,-83,0,0,0,0
CN(C)CC1CCCCC1OC(=O)c1ccc(Cl)cc1 (stereo unspecified),0,0,0,0,0,0
CN(C)CC1CCCCC1C1(O)c2ccccc2CSc2sccc21 (stereo unspecified),0,-73,0,0,0,0
Cc1cc2c(c(=O)o1)C1O[C@](CCCCN3C(=O)c4ccccc4C3=O)(Cc3cc(C#N)ccc31)O2,-,-,-,-,0[15.4 µM],-
FC(F)(F)c1cc(Sc2ccccc2)nc(-c2ccccn2)n1,0,0,0,0,0,34
CCN(CC)S(=O)(=O)c1ccc(C)c(NC(=O)CN(C)C)c1,0,0,0,0,0,0
CCN(CC)S(=O)(=O)c1ccc(C)c(NC(=O)CNCc2ccccc2OC)c1,0,0,0,0,0,33
SMILES,Rango complex inh,D3 antag,PTAP TSG101 blk,Rango dissoc inh,MmCpn inh,D3 ag
COc1ccccc1CNCC(=O)Nc1cc(S(=O)(=O)N2CCCCC2)ccc1C,0,-51,0,0,0,0
COc1ccccc1CNCC(=O)Nc1cc(S(=O)(=O)N2CCCCCC2)ccc1Cl,0,-60,0,0,0,0
Cc1ccc(S(=O)(=O)N2CCCCC2)cc1NC(=O)CNCc1ccco1,0,0,0,0,?,38
COc1ccc(C(C)(O)c2nc(-c3ccc(N(C)C)cc3)cs2)cc1 (stereo unspecified),-,0,-,-,-,0
c1ccc(COc2ncnc3c2ncn3CCCNCC(c2ccccc2)c2ccccc2)cc1,-,-86,-,-,-,0
O=C(Cn1cnc2c(OCc3ccccc3)ncnc21)NCc1ccccn1,0,-67,0,0,0,0
CCCCCCCCCCCCCCCC[n+]1cccc(C(=O)N(CC)CC)c1,73µM!,-74!,0,?,0,0
CCCCCCCC[n+]1cccc(C(=O)N(CC)CC)c1,0,0,0,0,0,0
COc1ccc(C(=O)CSc2nc3cc(C(=O)NC4CCCC4)ccc3c(=O)n2CC2CCCO2)cc1 (stereo unspecified),-,-,-,-,-,0
Cc1ccc(CNC(=O)Nc2nnc([C@@H]3C[C@H](O)[C@@H](CO)O3)s2)cc1,-,-63,-,-,-,0
Cc1ccc(NC(=O)c2c(C)cc(C)nc2SCC(=O)Nc2ccc(Br)cc2)cc1,-,-,-,-,-,0
CCN(CC)CCOC(=O)c1ccc(NC(=O)CCCN2C(=O)/C(=C/c3cccs3)SC2=S)cc1,0,-74,-,0,0,0
O=C(c1cnc(N2CCCCC2)c2ccccc12)N1CCN(c2ccccc2F)CC1,-,-,-,-,-,0
O=C(NC(C(=O)c1ccccc1)N1CCOCC1)c1ccccc1 (stereo unspecified),0,0,0,0,0,0
Cc1cc(=O)n(C(NC(=O)c2ccccc2)C(=O)c2ccccc2)cn1 (stereo unspecified),0,0,0,0,0,65
CC(C)(C)c1ccc(-c2nnc(-c3ccccc3NC(=O)c3ccc(F)cc3F)o2)cc1,-,-,-,-,-,0
N=C1N(c2ccccc2)C(=S)C(=Nc2ccccc2)N1c1ccccc1,0,-61,0,0,-,0
CN1CCC(OC(=O)c2ccccc2)CC1,0,0,0,0,0,0
Cc1c(Br)cc(C(=O)OC2CCN(C)CC2)c(C)c1C,0,-88,0,0,0,0
COc1ccc([C@]23Cc4ccccc4C(O2)C2=C(CCCC2=O)O3)cc1,-,-,-,-,0[15.4 µM],-
O=C(Nc1ccccc1)c1ccc(Nc2c([N+](=O)[O-])cc([N+](=O)[O-])c3ccccc23)cc1,?,-68,0,0,0,0
Cc1c(C(=O)Nc2ccc(Nc3ccccc3)cc2)cccc1[N+](=O)[O-],0,0,0,0,0,0
Cc1ccc(C)c(NC(=O)CN2C(=O)CCc3cc(S(=O)(=O)N4CCCCC4)ccc32)c1,-,-,-,-,-,0
CCOC(=O)C1CCCCN1Cc1cccc(OC)c1OC (stereo unspecified),0,-108,0,0,0,0
CCOC(=O)C1CCCCN1Cc1cc(OC)ccc1OC (stereo unspecified),?,0,0,0,0,0
